# Laboratory results from PubChem BioAssay AID504326 (The Scripps Research Institute Molecular Screening Center, 2011).
# Protein sequences, listed by entry. Tags and fused reporters are not part of them.
# UniProt P35372, whole entry, looked up: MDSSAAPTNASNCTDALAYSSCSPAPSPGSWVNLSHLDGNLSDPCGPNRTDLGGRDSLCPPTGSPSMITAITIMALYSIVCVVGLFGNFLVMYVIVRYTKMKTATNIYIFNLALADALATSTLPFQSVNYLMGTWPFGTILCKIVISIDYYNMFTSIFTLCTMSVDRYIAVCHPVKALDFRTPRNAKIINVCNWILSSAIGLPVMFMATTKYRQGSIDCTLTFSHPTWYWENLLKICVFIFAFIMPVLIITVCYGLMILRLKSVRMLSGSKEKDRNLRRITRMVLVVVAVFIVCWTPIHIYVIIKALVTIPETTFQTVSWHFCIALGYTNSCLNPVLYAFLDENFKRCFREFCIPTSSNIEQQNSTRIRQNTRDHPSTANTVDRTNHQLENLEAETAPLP
# UniProt P41143, whole entry, looked up: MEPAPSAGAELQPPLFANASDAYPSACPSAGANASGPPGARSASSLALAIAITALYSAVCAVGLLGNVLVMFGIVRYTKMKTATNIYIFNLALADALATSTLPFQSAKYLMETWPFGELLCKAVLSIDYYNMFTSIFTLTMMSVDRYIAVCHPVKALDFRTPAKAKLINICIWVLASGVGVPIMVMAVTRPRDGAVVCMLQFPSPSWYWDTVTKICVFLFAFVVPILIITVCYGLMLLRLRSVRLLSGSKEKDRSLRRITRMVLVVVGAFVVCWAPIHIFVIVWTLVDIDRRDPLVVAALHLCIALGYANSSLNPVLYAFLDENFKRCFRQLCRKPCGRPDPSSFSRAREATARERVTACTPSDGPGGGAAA
# This is a selection; strong and weak results do not stand in their true shares. Active and inactive are the calls of the source. No stated cut-off is given here; in the data, active means activation above about 18%; inactive means the rest.
# Target: Mu-type opioid receptor (Homo sapiens) + Delta-type opioid receptor (Homo sapiens) (UniProt P35372+P41143)
# Assay: agonists of OPRM1-OPRD1 heterodimerization, primary screen, cell-based, luminescence (AID 504326);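 further: 0% = vehicle-treated cells and 100% = reference agonist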
# Details: cells, at 9.3 µM, stronger effect = higher value
row,Structure (SMILES),activation
1,c1ccc2c(c1)nc1n2CCN1,inactive: -2.46%
2,Cc1ccc2c(c1)C1CN(C)CCC1N2C(=S)Nc1ccc(OC(F)F)cc1 (stereo not given),inactive: -0.63%
3,CC(=O)Nc1nc2ccccc2n1CCN(C)C,inactive: -2.16%
4,CC(C)[C@H](NC(=O)N1CCn2c1nc1ccccc12)C(=O)N[C@@H](C(=O)O)c1ccccc1,inactive: -2.61%
5,O=C(Cn1cnc2c(NCc3ccccc3)ncnc21)NCC1CCCO1 (stereo not given),inactive: -2.38%
6,O=C(Cn1cnc2c(NCc3ccccc3)ncnc21)NCc1ccccn1,inactive: -2.87%
7,CC1CCC2C(=O)N(c3ccc(NC4CCN(Cc5ccccc5)CC4)c([N+](=O)[O-])c3)C(=O)C2C1 (stereo not given),inactive: 0.82%
8,CCCC(=O)Nc1nnc(/C=C/c2ccc(OC)cc2)s1,inactive: -1.81%
9,CC(=O)Nc1ccc2c(c1)nc1n2CCN(C2CCCCC2)C1,inactive: -1.55%
10,CCN(CC)CCn1c(NC(=O)c2ccc(Cl)cc2)nc2ccccc21,inactive: 5.27%
11,Cn1c(=O)n(CC(N)=O)c2ccccc21,inactive: -0.96%
12,COc1cc(C2NCCC3(OCCO3)C2(C)C)cc(OC)c1OC (stereo not given),inactive: 0.57%
13,O=C(Cn1c(-c2ccccn2)nc2ccccc21)N/N=C/c1ccccn1,inactive: 2.07%
14,O=C(CCCCCNC(=O)N1CCn2c1nc1ccccc12)NCc1ccccc1Cl,inactive: -2.93%
15,O=C(Cn1c(NCCO)nc2ccccc21)NCC1CCCO1 (stereo not given),inactive: -0.85%
16,Cc1ccc2c(c1)C1CN(C)CCC1N2S(=O)(=O)c1cc(C(F)(F)F)ccc1Cl (stereo not given),inactive: 0.98%
17,O=C(Cn1c(S(=O)(=O)Cc2ccccc2)nc2ccccc21)N1CCCCC1,inactive: -0.02%
18,COCCN1CCn2c(nc3cc(NC(=O)c4cccs4)ccc32)C1,inactive: -0.36%
19,COc1cccc(CNc2nc3ccccc3n2CCN2CCCCC2)c1,inactive: -0.08%
20,O=C(Nc1ccccc1)N1CCn2c(nc3ccccc32)C1,inactive: -2.15%

row,Structure (SMILES),activation
1,O=C(Nc1ccc2c(c1)nc1n2CCN(C2CCCCC2)C1)c1ccco1,inactive: 1.26%
2,O=C(CSc1nc2ccccc2n1CC(=O)N1CCCC1)Nc1ccc2c(c1)OCO2,inactive: 1.14%
3,CCOC(=O)CC[C@H](NC(=O)Cn1cnc2c(OCc3ccccc3)ncnc21)C(=O)OCC,inactive: -1.99%
4,COc1ccc(CNC(=O)[C@H](C)NC(=O)N2CCn3c2nc2ccccc23)cc1,inactive: -2.36%
5,COc1cccc(CNC(=O)[C@H](CC(C)C)NC(=O)N2CCn3c2nc2ccccc23)c1,inactive: -0.05%
6,CCOP(=O)(Nc1cccc2ccccc12)OCC,inactive: 0.35%
7,CCN(CC)CCCNC(=S)N1CCn2c(nc3ccccc32)C1,inactive: -2.54%
8,CCCOP(=S)(Nc1nc(N)cc(=O)[nH]1)OCCC,inactive: -1.12%
9,O=C(CSc1nc2ccccc2n1CC(=O)N1CCOCC1)N1CCCC1,inactive: -2.67%
10,CSCC[C@H](NC(=O)N1CCn2c1nc1ccccc12)C(=O)N1CCCCC1,inactive: -2.72%
11,Cn1c(=O)n(CCc2ccccc2)c(=O)c2c1nc1n2CCN1Cc1ccco1,inactive: -3.27%
12,C[C@H](NC(=O)N1CCn2c1nc1ccccc12)C(=O)NCc1ccc(F)cc1,inactive: -2.02%
13,Cc1ccc2c(c1)C1CN(C)CCC1N2C(=O)c1ccccc1NS(=O)(=O)c1cccc(C(F)(F)F)c1 (stereo not given),inactive: 1.26%
14,Oc1ccc(CC2(N3CCCC3)CCCCC2)cc1,inactive: 0.33%
15,O=C(Nc1nc2ccccc2n1CCN1CCOCC1)c1ccccc1,inactive: -3.55%
16,NNC(=O)Cn1cnc2ccccc21,inactive: 1.09%
17,O=C(Cn1c(C(F)(F)F)nc2ccccc21)Nc1ccccc1N1CCOCC1,inactive: 0.87%
18,COc1ccc(CNC(=O)Cn2cnc3c(OCc4ccccc4)ncnc32)cc1,inactive: -1.41%
19,Nc1cccc2c([As](=O)(O)O)cccc12,inactive: 0.69%
20,O=C(Cn1c(CO)nc2ccccc21)NCCc1ccccc1,inactive: -1.4%

row,Structure (SMILES),activation
1,Cc1ccc(NCCc2c([N+](=O)[O-])cc([N+](=O)[O-])cc2[N+](=O)[O-])cc1,inactive: 6.46%
2,CC(C(=O)Nc1ccccc1C(=O)O)n1c(C(F)(F)F)nc2ccccc21 (stereo not given),inactive: -1.85%
3,Cn1c(=O)c2ncn(CC(=O)NCCOc3ccccc3)c2n(C)c1=O,inactive: -2.68%
4,CC(C)(C)NC(=O)Cn1c(-c2nonc2N)nc2ccccc21,inactive: -2.36%
5,O=[N+]([O-])c1ccc2c(c1)nc1n2CCN(C2CCCCC2)C1,inactive: -1.52%
6,COC(=O)Cn1c(=N)n(CCN2CCCCC2)c2ccccc21,inactive: -3.26%
7,CCc1ccc(NC(=O)Cn2c3[n+](c4c(F)c(F)ccc42)CCCCC3)cc1,inactive: -2.7%
8,Cc1cccc(OCC(=O)OC2CN3CCC2CC3)c1 (stereo not given),inactive: -1.59%
9,CCN(CC)CCn1cnc2c1c(=O)n(CCOC(=O)c1cc(OC)c(OC)c(OC)c1)c(=O)n2C,inactive: -2.63%
10,O=C(Cn1cnc2ccccc21)Nc1cccc(S(=O)(=O)N2CCCC2)c1,inactive: -1.27%
11,C=CCOC(=O)C1=C(C)N=C2SCCC(=O)N2C1/C=C/c1ccccc1 (stereo not given),inactive: -0.7%
12,Cn1c(=O)c2c(ncn2CCN(CCO)Cc2ccccc2)n(C)c1=O,inactive: -1.82%
13,O=[As](O)(c1cccc(O)c1)c1cccc(O)c1,inactive: -1.93%
14,COc1ccc(CNc2nc3ccccc3n2CCN2CCOCC2)cc1,inactive: -2.13%
15,N#CCC(=O)N1CCn2c1nc1ccccc12,inactive: -3.11%
16,O=C(Cn1c(CO)nc2ccccc21)NC1CCCCCC1,inactive: -3.1%
17,CCN(CC)CCn1c(NCc2cc(OC)ccc2OC)nc2ccccc21,inactive: -2.46%
18,CCOC(=O)CSc1nc2ccccc2n1CC(=O)NC(C)(C)C,inactive: -2.25%
19,CCOC(=O)C1=C(C)N=C2SCCC(=O)N2[C@@H]1/C=C/c1ccccc1,inactive: 7.02%
20,COC(=O)[C@H](CC(C)C)NC(=O)Cn1cnc2c(OCc3ccccc3)ncnc21,inactive: -0.09%
